Drawing on publication PMC6706427, this text covers percent reduction of co-precipitation against Flag-CLIC4 wild type for one substance.

This experiment concerns the target Flag-CLIC4-Y104A (dog). Briefly: co-IP; lysates of co-transfected 293T cells in RIPA buffer plus 0.5% CHAPS; anti-Flag or control antibody; Protein-G Dynabeads; 4 °C overnight; 4 washes; blots quantified with the Odyssey system, three independent repeats.

As for “MMP14-mCherry (from UniProt P50281 112-582) (natural protein)”, the percent reduction of co-precipitation against Flag-CLIC4 wild type came out at 56 % less.
